Among the data in US20090099237A1, “Methods of treating inflammatory diseases” (Roche Palo Alto LLC, priority 2007, published 2009) are IC50 values, retold here.

Amino acid sequences for entries named in this document (tags omitted). A change or cut given only in a name is not applied to a line headed by its entry.
UniProt P48730: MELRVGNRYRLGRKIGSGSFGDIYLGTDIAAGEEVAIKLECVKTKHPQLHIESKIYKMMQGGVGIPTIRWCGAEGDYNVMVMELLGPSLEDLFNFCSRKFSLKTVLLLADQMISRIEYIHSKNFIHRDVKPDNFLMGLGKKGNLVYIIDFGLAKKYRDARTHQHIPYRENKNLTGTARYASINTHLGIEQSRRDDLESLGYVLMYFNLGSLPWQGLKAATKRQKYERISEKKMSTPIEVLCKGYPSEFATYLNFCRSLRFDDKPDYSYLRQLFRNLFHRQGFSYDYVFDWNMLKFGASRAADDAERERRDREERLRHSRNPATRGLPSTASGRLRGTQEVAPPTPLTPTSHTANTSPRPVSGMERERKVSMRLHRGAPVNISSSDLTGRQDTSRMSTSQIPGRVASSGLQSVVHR
UniProt P49674: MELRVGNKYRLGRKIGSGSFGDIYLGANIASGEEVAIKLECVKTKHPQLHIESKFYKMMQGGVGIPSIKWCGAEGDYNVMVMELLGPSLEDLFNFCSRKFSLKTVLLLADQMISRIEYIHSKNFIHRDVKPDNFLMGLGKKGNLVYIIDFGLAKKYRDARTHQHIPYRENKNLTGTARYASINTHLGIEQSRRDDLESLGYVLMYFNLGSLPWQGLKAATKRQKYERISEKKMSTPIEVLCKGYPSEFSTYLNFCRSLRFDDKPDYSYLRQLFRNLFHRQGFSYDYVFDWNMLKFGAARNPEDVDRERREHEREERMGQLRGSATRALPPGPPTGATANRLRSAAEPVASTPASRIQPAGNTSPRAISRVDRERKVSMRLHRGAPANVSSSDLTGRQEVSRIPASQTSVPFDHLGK

Experiment [1] addresses T1, CK1δ (Homo sapiens, UniProt P48730).
T1 construct: purchased Upstate
Description: In vitro kinase assay (33P, peptide substrate). Type of experiment: biochemical. To be noted: 50 μM ATP.

Experiment [2] deals with T2, CK1ε (Homo sapiens, UniProt P49674).
T2 construct: purchased Invitrogen
Briefly: In vitro kinase assay (33P, peptide substrate). To be noted: 50 μM ATP. The format is biochemical.

One may read the IC50 as the midpoint of a concentration-inhibition curve. A higher IC50 goes with a need for much substance. Turning to `NC(=O)c1ccc(-c2nc(-c3ccc4c(c3)OCO4)c(-c3ccccn3)[nH]2)cc1` [SB431542, 4-(4-benzo-[1,3]dioxol-5-yl-5-pyridin-2-yl-1H-imidazol-2-yl)benzamide], the IC50 worked out at 2 µM in experiment [1] and 4.1 µM in experiment [2].
